HCMV UL50-53 inh: cytomegalovirus nuclear egress complex inhibition. 190,000 compounds, 0.15% hits. inhibition, % (no concentration beside the values). HTRF UL50-UL53 interaction, normalized percent inhibition; in the data active means inhibition above about 27%, passing the limit was not always enough
GIV Gai3 FP: inhibitors of GIV GBA-motif binding to rat Galpha-i3; P08753; Galpha-i3/FITC-GIV peptide fluorescence polarization, 90 min; stronger effect = lower value; scaled: aluminum fluoride 0%, vehicle 100%; percent of control (FP), % (test concentration not listed); 210,000 tested, 0.42% active; AID 1224905;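 active = replicate mean at 85% of control or lower, very high polarization wells dropped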;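 note: wells of about 15 µL received 100 nL stock; the first replicate is given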
GIV Gai FP conf: GIV-Galpha-i3 inhibition, FP confirmation; fluorescence polarization, mP at 100 µM; FITC-GIV peptide binding to Galphai3, fluorescence polarization; active compounds read low; 580 compounds, 38% hits; shares compounds with GIV Gai3 FP;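 active means inhibition score of 15 or more, meaning 100 minus mean polarization as percent of control over three replicates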;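 further: lower mP means peptide displaced from Galphai3 so more inhibition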
GIV Gai AS conf: GIV-Galpha-i3 inhibition, AlphaScreen confirmation. shares compounds with GIV Gai3 FP. AlphaScreen Galphai3-GIV binding, purified proteins, 90 min; active compounds read low. AlphaScreen counts at 100 µM. 580 compounds, 39% hits;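 active means inhibition score at or above a set limit, where the score is 100 minus the three-replicate mean percent of control signal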
* hit, by the source's call; ! = not confirmed by another sample. In the library only some 0.43% were active in any assay of this set; here they are far more common.

How did Cc1ccc(-n2ncc3c(=O)[nH]c(SCC(=O)c4ccccc4)nc32)cc1 do in these assays?
HCMV UL50-53 inh: 13

What do the screens show for `CCNc1cccc2c1C(=O)N(C)C2=O`?
HCMV UL50-53 inh: -68; GIV Gai3 FP: 6.2*

Results for CN1C(=O)c2cccc(NC(=O)CSc3ccc(F)cc3)c2C1=O ?
HCMV UL50-53 inh: -35; GIV Gai3 FP: 101

How did CCCCn1c(C(Cc2ccccc2)NC(=O)COC)nc2ccccc21 (configuration not stated) do in these assays?
HCMV UL50-53 inh: -3

What do the screens show for `CCOc1cccc(/C=C2\SC(=S)N(CC)C2=O)c1O`?
HCMV UL50-53 inh: -21

Results for CCOc1cc(/C=C2\SC(=S)N(CC)C2=O)cc(Cl)c1O ?
HCMV UL50-53 inh: -19; GIV Gai3 FP: -15*

What do the screens show for `CN1C(=O)c2cc(C(=O)NC3CC3)nn2CC1(C)C(=O)NC1CCCCC1` (configuration not stated)?
HCMV UL50-53 inh: -1; GIV Gai3 FP: 104

Results for C/C=C/C[C@@H](C)[C@@H](O)[C@H]1C(=O)N[C@@H](CC)C(=O)N(C)CC(=O)N(C)[C@@H](CC(C)C)C(=O)N[C@@H](C(C)C)C(=O)N(C)[C@@H](CC(C)C)C(=O)N[C@@H](C)C(=O)NC(C)C(=O)N(C)[C@@H](CC(C)C)C(=O)N(C)[C@@H](CC(C)C)C(=O)N(C)[C@@H](C(C)C)C(=O)N1C (some centres not stated) ?
HCMV UL50-53 inh: 6

Results for O=C(Cn1cnc2ccccc21)OCc1ccc(Br)cc1 ?
HCMV UL50-53 inh: -8

What do the screens show for `Cc1ccc(C2C=C(c3ccc(Cl)cc3)Nc3nc(NC(=O)c4ccco4)nn32)cc1` (configuration not stated)?
HCMV UL50-53 inh: -52; GIV Gai3 FP: 33*

What do the screens show for `O=C(Nc1nc2n(n1)C(c1ccc(F)cc1)C=C(c1ccccc1)N2)c1ccc(Cl)cc1` (configuration not stated)?
HCMV UL50-53 inh: -27; GIV Gai3 FP: 141

What do the screens show for `COc1ccccc1C(=O)Nc1nc2n(n1)C(c1ccc(F)cc1)C=C(c1ccc(Cl)cc1)N2` (configuration not stated)?
HCMV UL50-53 inh: -35; GIV Gai3 FP: 125

Results for COc1ccc(C(=O)Nc2nc3n(n2)C(c2ccc(F)cc2)C=C(c2ccc(Cl)cc2)N3)cc1 (configuration not stated) ?
HCMV UL50-53 inh: -17; GIV Gai3 FP: -66*

Results for Cc1ccc(S(=O)(=O)Nc2nc3n(n2)C(c2ccc(Cl)cc2)C=C(c2ccc(Cl)cc2)N3)cc1 (configuration not stated) ?
HCMV UL50-53 inh: -20; GIV Gai3 FP: 113

What do the screens show for `Cc1ccc(S(=O)(=O)Nc2nc3n(n2)C(c2ccc(Cl)cc2)C=C(c2ccccc2)N3)cc1` (configuration not stated)?
HCMV UL50-53 inh: -54; GIV Gai3 FP: -66*!

Results for COc1ccc(Cl)cc1N1C(=O)C2C(c3ccccc3F)NN(C(=O)c3ccc(C)cc3)C2C1=O (configuration not stated) ?
GIV Gai3 FP: 99

Results for Cc1noc2ncnc(N3CCCC(C(=O)Nc4ccc(F)cc4F)C3)c12 (configuration not stated) ?
HCMV UL50-53 inh: 10; GIV Gai3 FP: 100

What do the screens show for `Cc1csc2c(=O)sc(NC(=O)c3ccco3)nc12`?
HCMV UL50-53 inh: 33; GIV Gai3 FP: 103

Results for Cc1csc2c(=O)sc(NC(=O)c3cccs3)nc12 ?
HCMV UL50-53 inh: 58*; GIV Gai3 FP: 103

What do the screens show for `COc1ccc(-c2nc(-c3cccc(OC)c3OC)[nH]c2-c2ccc(OC)cc2)cc1`?
GIV Gai3 FP: 107

Results for O=C(Cn1c(=O)n(CCC(=O)NC2CCCC2)c(=O)c2ccccc21)NCc1ccco1 ?
GIV Gai3 FP: 99

How did CCn1c(C(=O)O)c(CC(=O)Nc2cc(OC)c(OC)c(OC)c2)c2ccccc21 do in these assays?
HCMV UL50-53 inh: 4; GIV Gai3 FP: 109

Results for O=C(NC1CCCC1)c1ncoc1-c1cccs1 ?
HCMV UL50-53 inh: -46; GIV Gai3 FP: 105

How did Cc1ccccc1/C=C/c1c[nH]c2ccccc12 do in these assays?
HCMV UL50-53 inh: -15; GIV Gai3 FP: 101

How did OCC[n+]1ccc(/C=C/c2c[nH]c3ccccc23)cc1 do in these assays?
GIV Gai3 FP: -18*

How did O=C1NC(=O)N(c2ccc(Br)cc2)C(=O)/C1=C/c1ccc(N2CCOCC2)o1 do in these assays?
HCMV UL50-53 inh: -113; GIV Gai3 FP: 16*

What do the screens show for `COc1ccc(N2C(=O)NC(=O)/C(=C\c3cc(Br)c(N4CCOCC4)o3)C2=O)cc1`?
HCMV UL50-53 inh: 0; GIV Gai3 FP: 111

Results for O=C(CON1C(=O)c2ccccc2C1=O)c1ccc(O)cc1O ?
HCMV UL50-53 inh: -45; GIV Gai3 FP: 101

What do the screens show for `OCN(Cc1ccccc1)Cc1ccccc1`?
HCMV UL50-53 inh: -18

Results for CN(C)N1C(=O)/C(=C/c2cccs2)SC1=Nc1ccccc1 ?
HCMV UL50-53 inh: 3; GIV Gai3 FP: 85*

How did COc1ccc2ccccc2c1/C=C1\SC(=Nc2ccccc2)N(N(C)C)C1=O do in these assays?
GIV Gai3 FP: 108

What do the screens show for `CSC1=C(C#N)C(c2ccc(C(C)C)cc2)C2=C(CCCC2=O)N1` (configuration not stated)?
HCMV UL50-53 inh: -36; GIV Gai3 FP: 99

How did N#Cc1c(N2CCCC(C(=O)O)C2)nc(N)c2c(N)nc3c(c12)CC(=O)N3C1CCCC1 (configuration not stated) do in these assays?
HCMV UL50-53 inh: -18

What do the screens show for `CN(CCO)c1nc(N)c2c(N)nc3c(c2c1C#N)CC(=O)N3C1CCCC1`?
HCMV UL50-53 inh: 101*

What do the screens show for `O=C1NC(=Nc2ccc(F)cc2)S/C1=C/c1ccc(N2CCCC2)o1`?
HCMV UL50-53 inh: -22

What do the screens show for `O=C1NC(=Nc2ccc(F)cc2)S/C1=C/c1ccc(N2CCCCCC2)o1`?
HCMV UL50-53 inh: -28; GIV Gai3 FP: -78*

How did Cc1cc(C)n(-c2nc3cc(Cl)ccc3nc2NC2CCCC2)n1 do in these assays?
HCMV UL50-53 inh: -6; GIV Gai3 FP: 111

How did COc1ccccc1CNC(=O)c1nc[nH]c1C(=O)NCc1ccccc1 do in these assays?
HCMV UL50-53 inh: -15; GIV Gai3 FP: 100

Results for O=c1sc2ccccc2n1Cc1ccccc1 ?
HCMV UL50-53 inh: 4

Results for O=c1sc2ccccc2n1Cc1nnc(-c2ccccc2)o1 ?
HCMV UL50-53 inh: 19; GIV Gai3 FP: 92; GIV Gai FP conf: 74; GIV Gai AS conf: 33349

Pulled one by one from above, 5 records:
Results for O=c1sc2ccccc2n1Cc1ccccc1 ?
HCMV UL50-53 inh: 4

How did OCC[n+]1ccc(/C=C/c2c[nH]c3ccccc23)cc1 do in these assays?
GIV Gai3 FP: -18*

What do the screens show for `O=C1NC(=Nc2ccc(F)cc2)S/C1=C/c1ccc(N2CCCCCC2)o1`?
HCMV UL50-53 inh: -28; GIV Gai3 FP: -78*

How did Cc1ccccc1/C=C/c1c[nH]c2ccccc12 do in these assays?
HCMV UL50-53 inh: -15; GIV Gai3 FP: 101

Results for O=C(NC1CCCC1)c1ncoc1-c1cccs1 ?
HCMV UL50-53 inh: -46; GIV Gai3 FP: 105

Next part
How did O=C(NN1C(=O)c2ccccc2C1=O)c1ccccc1 do in these assays?
HCMV UL50-53 inh: -8

What do the screens show for `O=C(NC1(O)C(=O)c2ccccc2C1=O)c1ccccc1`?
GIV Gai3 FP: 52*; GIV Gai FP conf: 47*; GIV Gai AS conf: 37206

How did COc1cscc1C(=O)NC1(O)C(=O)c2ccccc2C1=O do in these assays?
HCMV UL50-53 inh: 53*; GIV Gai3 FP: 64*; GIV Gai FP conf: 60; GIV Gai AS conf: 46565

How did COc1ccccc1C(=O)ON1C(=O)c2ccccc2C1=O do in these assays?
HCMV UL50-53 inh: -22; GIV Gai3 FP: 93
